Data: patent US8546386B2, “Corrosion and microbial control in hydrocarbonaceous compositions” (Dow Global Technologies LLC, priority 2008, dated 2013)

Columns and labels:
[1] = tested on: Hormoconis resinae ATCC#20495; test: Microbial testing in biodiesel fuel, plate count; format: cell-based; settings: no biocide
[2] = tested on: Yarrowia tropicalis ATCC#48138; test: Microbial testing in biodiesel fuel, plate count; format: cell-based; settings: no biocide

## OCCN(CCO)CCO
[1]; additive 500 ppm, Week 1
  Mold (H. resinae) count: 2.30E+04 Mold/ml
[1]; additive 500 ppm, Week 2
  Mold (H. resinae) count: 1.20E+05 Mold/ml
[1]; additive 500 ppm, Week 3
  Mold (H. resinae) count: 1.70E+06 Mold/ml
[1]; additive 1500 ppm, Week 2
  Mold (H. resinae) count: 2.30E+02 Mold/ml
[1]; additive 1500 ppm, Week 3
  Mold (H. resinae) count: 4.20E+03 Mold/ml
[1]; additive 1500 ppm, Week 4
  Mold (H. resinae) count: 5.60E+02 Mold/ml
[2]; additive 500 ppm, Week 1
  Yeast (Y. tropcalis) count: 8.80E+03 Yeast/ml
[2]; additive 500 ppm, Week 2
  Yeast (Y. tropcalis) count: 6.00E+03 Yeast/ml
[2]; additive 500 ppm, Week 3
  Yeast (Y. tropcalis) count: 2.00E+04 Yeast/ml
[2]; additive 500 ppm, Week 4
  Yeast (Y. tropcalis) count: 4.20E+04 Yeast/ml
[2]; additive 1500 ppm, Week 1
  Yeast (Y. tropcalis) count: <1.0E2 Yeast/ml
[2]; additive 1500 ppm, Week 2
  Yeast (Y. tropcalis) count: <1.0E2 Yeast/ml
[2]; additive 1500 ppm, Week 3
  Yeast (Y. tropcalis) count: <1.0E2 Yeast/ml
